# Molecular target: C-Raf TR (Δ1-324 deletion mutant with activating mutations) (Homo sapiens (Human), UniProt P04049, Y340E/Y341E)
# Format: biochemical
# Conditions: truncated C-Raf (Δ1-324), ATP 3 uM, 10 nM biotinylated MEK1 kinase dead
row,Substance,IC50 [nM]
1,"3-(2-(1,1-dioxidothiomorpholino)-6-morpholinopyrimidin-4-yl)-4-methyl-N-(3-(trifluoromethyl)phenyl)benzamide [Example 9]",0.899
2,4-methyl-3-(4-morpholinopyridin-2-yl)-N-(3-(trifluoromethyl)phenyl)benzamide [Example 64],0.847
3,N-(4-methyl-3-(4-morpholinopyridin-2-yl)phenyl)-3-(trifluoromethyl)benzamide [Example 111],0.403
